# Assay results as given in PubChem BioAssay AID602125 (The Scripps Research Institute Molecular Screening Center, 2011).
# Only a part is listed here, and it is no random draw. Calls of active or inactive are those of the source. No stated cut-off is given here; in the data, active means inhibition above about 6.5%; inactive means the rest.
# Test: quenching of GFP signal – biochemical, fluorescence, artefact control for Rin1-Abl interaction inhibitor project (AID 602125);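 further: ABL1-eGFP fusion protein alone without its partner RIN1-SBP; 0% = protein with vehicle and 100% = wells lacking protein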
# Settings: inhibitors/quenchers counterscreen, at 6.75 µM, active compounds read high
row,SMILES,inhibition
1,O=c1[nH]c2ccccc2n1C1CCN(C(c2cccs2)c2nnnn2C2CCCCC2)CC1 (stereo unspecified),inactive: -0.29%
2,COc1cccc(C(c2nnnn2C2CCCCC2)N2CCC(n3c(=O)[nH]c4ccccc43)CC2)c1OC (stereo unspecified),inactive: -1.2%
3,CCC(c1nnnn1C1CCCCC1)N1CCC(n2c(=O)[nH]c3ccccc32)CC1 (stereo unspecified),inactive: 0.13%
4,CCC(c1nnnn1C1CCCC1)N1CCC(n2c(=O)[nH]c3ccccc32)CC1 (stereo unspecified),inactive: -0.81%
5,O=c1[nH]c2ccccc2n1C1CCN(C(c2cc3ccccc3o2)c2nnnn2C2CCCCC2)CC1 (stereo unspecified),inactive: -0.17%
6,CCC(c1nnnn1C(C)(C)C)N1CCC(n2c(=O)[nH]c3ccccc32)CC1 (stereo unspecified),inactive: -1.58%
